Data published in PubChem BioAssay AID504845 (National Center for Advancing Translational Sciences (NCATS), 2011).
Where “and” joins values, the source holds several entries; their conditions need not be identical. Equal values may be shown once. This is a selection; strong and weak results do not stand in their true shares. Records with an inconclusive call do not appear. Calls of active or inactive are those of the source. The call rests on the fitted dose curve; in most records, active means well fitted inhibition curve with a large enough effect; inconclusive means small, poorly fitted or top-dose-only effect; inactive means no such curve, though single readings can be large or run the other way.

The chains behind the UniProt entries cited, without tags or fusion partners. Where a name states a change or a piece, a line headed by the entry shows the natural chain unless it says otherwise.
UniProt P49798: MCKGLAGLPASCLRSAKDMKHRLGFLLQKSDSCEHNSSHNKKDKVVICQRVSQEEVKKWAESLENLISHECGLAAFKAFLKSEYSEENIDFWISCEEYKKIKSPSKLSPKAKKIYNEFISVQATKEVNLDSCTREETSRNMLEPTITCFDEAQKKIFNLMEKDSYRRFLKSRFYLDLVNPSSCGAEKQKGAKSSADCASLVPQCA

Target: Regulator of G-protein signaling 4 (Homo sapiens) (UniProt P49798)
Experiment: Inhibitors of Regulator of G Protein Signaling (RGS) 4: qHTS; further: nearly all actives have a fitted effect of over 75% in size
Details: Transcreener GDP fluorescence polarization, RGS4-accelerated GTP hydrolysis
[1] = at 114 µM (top of the series) unless noted
On the % scale 0 is the no-effect control and ±100 the full control effect.

CN(C)C1(CNC(=O)c2ccc(S(C)(=O)=O)cc2)CCCCC1
activity change, negative = inhibition [1]: inactive: 24.8%

O=C(/C=C/c1ccccc1)OC1CN2CCC1CC2 (stereo unspecified)
activity change, negative = inhibition [1]: inactive: 20.6%

CCCC1OP(=O)(Nc2ccccc2)OCC1CC (stereo unspecified)
activity change, negative = inhibition [1]: inactive: 1.64%

Cc1nn(-c2ccccc2)c2c1P(=O)(N1CCOCC1)N(C)C(c1ccccc1)=N2 (stereo unspecified)
activity change, negative = inhibition [1]: inactive: 12.4%

Cc1ccc(C(=O)OC2CN3CCC2CC3)cc1 (stereo unspecified)
activity change, negative = inhibition [1]: inactive: -5.15%

CC1CCC(C(C)C)C(OP(=O)(Nc2ccccn2)c2ccccc2)C1 (stereo unspecified)
activity change, negative = inhibition [1]: inactive: 4.25%

N#CCCN(C(=O)COC(=O)C(O)(c1ccccc1)c1ccccc1)c1ccc(F)cc1
activity change, negative = inhibition [1]: inactive: -33.3%

CCOP1(=S)c2c(C)nn(CCC#N)c2N=C(c2ccc(F)cc2)N1C (stereo unspecified)
activity change, negative = inhibition [1]: inactive: -7.65%

CN(C(=O)Cc1ccccc1)[C@@H]1CC[C@]2(CCCO2)C[C@H]1N1CCCC1
activity change, negative = inhibition (at 56.9 µM (top of the series)): inactive: -15.1% | activity change, negative = inhibition (at 114 µM (top of the series)): inactive: 8.61%

O=[N+]([O-])c1ccc2c(c1)nnn2O
activity change, negative = inhibition [1]: inactive: -2.7%

CN(C)C(=O)c1cc([N+](=O)[O-])cc2c1-c1c(cc([N+](=O)[O-])cc1[N+](=O)[O-])C2=O
activity change, negative = inhibition [1]: inactive: -29.3%

CN(C(=O)Cc1ccc(Cl)c(Cl)c1)[C@H]1CC[C@@]2(CCCO2)C[C@@H]1N1CCCC1
activity change, negative = inhibition [1]: inactive: 4.61%

NC(=O)Nc1ccc([As](=O)(O)O)cc1
activity change, negative = inhibition [1]: inactive: -8.51%

O=C(O)COc1ccc([As](=O)(O)O)cc1[N+](=O)[O-]
activity change, negative = inhibition [1]: inactive: 7.88% [at 56.9 µM]

Nc1ccccc1[As](=O)(O)c1ccccc1
activity change, negative = inhibition [1]: inactive: -5.41%

CCOP1(=S)c2c(C)nn(CCC#N)c2N=C(c2ccccc2F)N1C (stereo unspecified)
activity change, negative = inhibition [1]: inactive: 0.546%

O=P(Nc1nccs1)(Oc1ccccc1)Oc1ccccc1
activity change, negative = inhibition [1]: inactive: -3.23%

O=P(Nc1nccs1)(c1ccccc1)c1nc2ccccc2s1 (stereo unspecified)
activity change, negative = inhibition [1]: inactive: -119%

COc1cc(C2NCCC3(OCCO3)C2(C)C)cc(OC)c1OC (stereo unspecified)
activity change, negative = inhibition [1]: inactive: -34.2%

CCOP(=O)(Nc1cccc2ccccc12)OCC
activity change, negative = inhibition [1]: inactive: 11.9%

Nc1cccc2c([As](=O)(O)O)cccc12
activity change, negative = inhibition [1]: inactive: -31.9%

Cc1ccc(NCCc2c([N+](=O)[O-])cc([N+](=O)[O-])cc2[N+](=O)[O-])cc1
activity change, negative = inhibition [1]: inactive: -45.5%

CCCOP(=S)(Nc1nc(N)cc(=O)[nH]1)OCCC
activity change, negative = inhibition [1]: inactive: 3.37%

Cc1cccc(OCC(=O)OC2CN3CCC2CC3)c1 (stereo unspecified)
activity change, negative = inhibition [1]: inactive: 14.1%

O=[As](O)(c1cccc(O)c1)c1cccc(O)c1
activity change, negative = inhibition [1]: inactive: -2.26%

O=C(OC1CN2CCC1CC2)c1ccc(Cl)cc1 (stereo unspecified)
activity change, negative = inhibition [1]: inactive: -7.72%

CN(C(=O)Cc1ccc(Cl)c(Cl)c1)[C@@H]1CC[C@]2(CCCO2)C[C@H]1N1CCCC1
activity change, negative = inhibition [1]: inactive: 80% [at 56.9 µM] and inactive: -6.75% [at 56.9 µM]

O=[As](O)(O)c1cccnc1
activity change, negative = inhibition [1]: inactive: 25.9% [at 11.4 µM]

COc1cc(C(=O)NCC2(N3CCOCC3)CCCCC2)cc(Cl)c1OC(C)C
activity change, negative = inhibition [1]: inactive: 11%

CS(=O)(=O)c1ccc(Cl)c(NC(=O)COC(=O)C(O)(c2ccccc2)c2ccccc2)c1
activity change, negative = inhibition [1]: inactive: 1.1%
